Results: article PMC8958511, “Development of Sulfamoylated 4-(1-Phenyl-1H-1,2,3-triazol-4-yl)phenol Derivatives as Potent Steroid Sulfatase Inhibitors for Efficient Treatment of Breast Cancer” (Journal of Medicinal Chemistry, 2022)

Experiment: blood morphology, blood biochemistry and organ weights of mice with 67NR tumor
Settings: Table S2, mice with 67NR tumor, 50 mg/kg

NS(=O)(=O)Oc1ccc(-c2cn(-c3cc(F)cc(F)c3)nn2)cc1 [5l, 4-(1-(3,5-difluorophenyl)-1H-1,2,3-triazol-4-yl)phenyl sulfamate]
MPV: 5±0,1 fL
